Test results as given in patent US11248234B2, “Herbicide-resistant hydroxyphenylpyruvate dioxygenases” (BASF SE, priority 2015, dated 2022).
Entries after “also recorded” stand apart in the source; their conditions may differ.

Experiments:
[1] = target: T1, Arabidopsis HPPD (Seq ID: 42) (Arabidopsis thaliana, UniProt P93836); test: In vitro HPPD activity assay (homogentisic acid by HPLC); assay type: biochemical; settings: for TI (normalized tolerance index): benchmark enzyme, normalized on Arabidopsis wild-type HPPD; for TI (tolerance index): not normalized
T1 construct: His6; made in house; host or cells: E. coli BL21 (DE3)
T1 sequence (P93836 1-445): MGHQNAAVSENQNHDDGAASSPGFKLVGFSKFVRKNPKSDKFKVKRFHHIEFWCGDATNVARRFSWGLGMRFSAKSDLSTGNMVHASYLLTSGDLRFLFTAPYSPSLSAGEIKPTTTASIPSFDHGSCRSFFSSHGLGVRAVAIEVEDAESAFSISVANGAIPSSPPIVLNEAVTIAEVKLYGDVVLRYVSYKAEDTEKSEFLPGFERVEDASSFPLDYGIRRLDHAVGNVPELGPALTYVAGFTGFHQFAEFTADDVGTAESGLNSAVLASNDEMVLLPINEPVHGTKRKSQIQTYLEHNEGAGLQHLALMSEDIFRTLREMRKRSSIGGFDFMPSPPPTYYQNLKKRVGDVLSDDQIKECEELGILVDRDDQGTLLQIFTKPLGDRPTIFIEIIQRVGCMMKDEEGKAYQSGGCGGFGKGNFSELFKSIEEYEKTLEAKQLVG
Experimental: (§1) HPPD produces homogentisic acid and CO2 from 4-hydroxyphenylpyruvate (4-HPP) and O2. The activity assay for HPPD is based on the analysis of homogentisic acid by reversed phase HPLC.
(§2) The assay mixture can contain 150 mM potassium phosphate buffer pH 7.0, 50 mM L-ascorbic acid, 100 μM Catalase (Sigma-Aldrich), 1 μM FeSO4 and 0.2 units of purified mutated HPPD enzyme in a total volume of 505 μl. 1 unit is defined as the amount of enzyme that is required to produce 1 nmol of HGA per minute at 20° C.
(§3) After a preincubation of 30 min the reaction is started by adding 4-HPP to a final concentration of 0.05 mM. The reaction is allowed to proceed for 45 min at room temperature. The reaction is stopped by the addition of 50 μl of 4.5 M phosphoric acid. The sample is filtered using a […] pore size PVDF filtration device.
(§4) 5 μl of the cleared sample is analyzed on an UPLC HSS T3 column (particle size 1.8 μm, dimensions 2.1×50 mm; Waters) by isocratic elution using 90% 20 mM NaH2PO4 pH 2.2, 10% methanol (v/v).
(§5) HGA is detected electrochemically at 750 mV (mode: DC; polarity: positive) and quantified by integrating peak areas (Empower software; Waters).
Inhibitors are dissolved in DMSO (dimethylsulfoxide) to a concentration of 0.5 mM. From this stock solution serial five-fold dilutions are prepared in DMSO, which are used in the assay. The respective inhibitor solution accounts for 1% of the assay volume. […] Activities are normalized by setting the uninhibited enzyme activity to 100%. IC50 values are calculated using non-linear regression.
Using methods which are described in the above examples or well known in the art, purified, recombinant mutated HPPD enzymes are characterized with respect to their kinetic properties and sensitivity towards HPPD inhibiting herbicides. Apparent michaelis constants (Km) and maximal reaction velocities (Vmax) are calculated by non-linear regression with the software GraphPad Prism 5 (GraphPad Software, La Jolla, USA) using a substrate inhibition model. […] Weighted means (by standard error) of Km and IC50 values are calculated from at least three independent experiments.
(§6) Field performance of the HPPD enzyme, which is used as a herbicide tolerance trait may depend not only on its lack of sensitivity towards HPPD inhibiting herbicides but also on its activity. To assess the potential performance of a herbicide tolerance trait a tolerance index (TI) is calculated using the following formula: […]
(§7) Easy comparison and ranking of each trait is enabled by normalizing tolerance indexes on Arabidopsis wild-type HPPD.

[2] = test system: SoHPPD A318R, L350M; test: In vitro HPPD activity assay; assay type: biochemical, Scenedesmus obliquus; settings: normalized on Arabidopsis wild-type HPPD (SEQ ID NO:42)
Experimental: as §1, §2, §3, §4, §5
(§8) Inhibitors are dissolved in DMSO (dimethylsulfoxide) to a concentration of 0.5 mM. From this stock solution serial five-fold dilutions are prepared in DMSO, which are used in the assay. The respective inhibitor solution accounts for 1% of the assay volume. Thus, final inhibitor concentrations range from 5 μM to 320 pM, respectively. Activities are normalized by setting the uninhibited enzyme activity to 100%. IC50 values are calculated using non-linear regression.
(§9) Using methods which are described in the above examples or well known in the art, purified, recombinant mutated HPPD enzymes are characterized with respect to their kinetic properties and sensitivity towards HPPD inhibiting herbicides. Apparent michaelis constants (Km) and maximal reaction velocities (Vmax) are calculated by non-linear regression with the software GraphPad Prism 5 (GraphPad Software, La Jolla, USA) using a substrate inhibition model. Apparent kcat values are calculated from Vmax assuming 100% purity of the enzyme preparation. Weighted means (by standard error) of Km and IC50 values are calculated from at least three independent experiments. The Cheng-Prusoff equation for competitive inhibition (Cheng, Y. C.; Prusoff, W. H. Biochem Pharmacol 1973, 22, 3099-3108) is used to calculate dissociation constants (Ki).
as §6, §7

[3] = test system: SoHPPD E345Q, K326D (short); test: In vitro HPPD activity assay; assay type: biochemical, Scenedesmus obliquus; settings: normalized on Arabidopsis wild-type HPPD (SEQ ID NO:42)
Experimental: as §1, §2, §3, §4, §5, §8, §9, §6, §7

[4] = test system: SoHPPD E345Q, K326Q (short); test: In vitro HPPD activity assay; assay type: biochemical, Scenedesmus obliquus; settings: normalized on Arabidopsis wild-type HPPD (SEQ ID NO:42)
Experimental: as §1, §2, §3, §4, §5, §8, §9, §6, §7

[5] = test system: SoHPPD F363I (short); test: In vitro HPPD activity assay; assay type: biochemical, Scenedesmus obliquus; settings: normalized on Arabidopsis wild-type HPPD (SEQ ID NO:42)
Experimental: as §1, §2, §3, §4, §5, §8, §9, §6, §7

[6] = test system: SoHPPD F39W, L367V, I375L (short); test: In vitro HPPD activity assay; assay type: biochemical, Scenedesmus obliquus; settings: normalized on Arabidopsis wild-type HPPD (SEQ ID NO:42)
Experimental: as §1, §2, §3, §4, §5, §8, §9, §6, §7

[7] = test system: SoHPPD Q317H (short); test: In vitro HPPD activity assay; assay type: biochemical, Scenedesmus obliquus; settings: normalized on Arabidopsis wild-type HPPD (SEQ ID NO:42)
Experimental: as §1, §2, §3, §4, §5, §8, §9, §6, §7

[8] = test system: SoHPPD Q317H, A318G, E345Q (short); test: In vitro HPPD activity assay; assay type: biochemical, Scenedesmus obliquus; settings: normalized on Arabidopsis wild-type HPPD (SEQ ID NO:42)
Experimental: as §1, §2, §3, §4, §5, §8, §9, §6, §7

[9] = test system: SoHPPD Q317M (short); test: In vitro HPPD activity assay; assay type: biochemical, Scenedesmus obliquus; settings: normalized on Arabidopsis wild-type HPPD (SEQ ID NO:42)
Experimental: as §1, §2, §3, §4, §5, §8, §9, §6, §7

| Compound | TI (normalized tolerance index) [1] | TI (tolerance index) [1] | TI (normalized tolerance index) [2] | TI (normalized tolerance index) [3] | TI (normalized tolerance index) [4] | TI (normalized tolerance index) [5] | TI (normalized tolerance index) [6] | TI (normalized tolerance index) [7] | TI (normalized tolerance index) [8] | TI (normalized tolerance index) [9] |
| --- | --- | --- | --- | --- | --- | --- | --- | --- | --- | --- |
| CN(c1c(Cl)ccc(C2=C(O)c3ncccc3C(C)(C)S2(=O)=O)c1Cl)S(C)(=O)=O [Inhibitor 3, N-[2,6-dichloro-3-(8-hydroxy-5,5-dimethyl-6,6-dioxo-thiopyrano[4,3-b]pyridin-7-yl)phenyl]-N-methyl-methanesulfonamide] | 1.0 | 23.8E−3 | 1.0 | 0.8 | 0.5 | 1.7 | 0.5 | 2.0 | 3.5 | 4.1 |
| Cc1c(C(=O)c2cnn(C)c2O)ccc(S(C)(=O)=O)c1C1=NOCC1 [Inhibitor 1, [3-(4,5-dihydroisoxazol-3-yl)-2-methyl-4-methylsulfonyl-phenyl]-(5-hydroxy-1-methyl-pyrazol-4-yl)methanone] | 1.0 | 0.95E−3 | 3.8 | 2.1 | 1.8 |  | 1.2 | 6.1 | 11.3 | 13.8 |
| CSc1c(Cl)cc(F)c(C(=O)Nc2nnnn2C)c1Cl [Inhibitor 7, 2,4-dichloro-6-fluoro-3-methylsulfanyl-N-(1-methyltetrazol-5-yl)benzamide] | 1.0 |  | 0.1 | 0.3 | 0.2 | 1.7 | 0.2 | 1.4 | 1.3 | 0.9 |
| Cc1nonc1NC(=O)c1ccc(S(C)(=O)=O)c(S(C)(=O)=O)c1C [Inhibitor 6, 2-methyl-N-(4-methyl-1,2,5-oxadiazol-3-yl)-3,4-bis(methylsulfonyl)benzamide] | 1.0 |  | 1.3 | 1.2 | 1.1 | not inhibited; also recorded: no inhi- | 0.7 | 4.1 | 7 | 8.7 |
